By IC50 is commonly meant the midpoint of a concentration-inhibition curve. Low values mean inhibition by little substance, high ones a need for much substance. As usually defined, the % Inhibition is the relative decrease from the control value, in per cent.

Sequences of proteins named here, by UniProt entry; tags and fusion partners are left off. Residues count along the entry.
UniProt Q03405, 23-335 limits assumed: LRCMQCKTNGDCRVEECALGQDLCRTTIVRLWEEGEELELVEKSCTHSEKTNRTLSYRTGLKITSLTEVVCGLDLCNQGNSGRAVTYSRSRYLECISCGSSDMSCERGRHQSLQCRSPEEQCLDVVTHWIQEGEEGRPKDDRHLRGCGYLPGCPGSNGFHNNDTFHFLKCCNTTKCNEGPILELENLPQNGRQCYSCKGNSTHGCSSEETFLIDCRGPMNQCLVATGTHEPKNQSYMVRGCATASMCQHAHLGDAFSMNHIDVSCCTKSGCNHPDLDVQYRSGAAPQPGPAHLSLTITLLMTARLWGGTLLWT

This note sets out measurements from US5747458A, “Urokinase receptor ligands” (Chiron Corporation, priority 1995, dated 1998).

The experiment addresses human urokinase receptor (Homo sapiens, UniProt Q03405). Kind of experiment: human urokinase receptor radioligand competition assay. Particulars: for IC50: labeled ligand: epitope tagged EGF-like domain of human urokinase. The source says:
Compounds of the invention may be screened for activity following any generally suitable assay for urokinase activity or inhibition. A particularly useful assay described in Goodson et al., Proc Natl Acad Sci USA (1994) 91:7129 (incorporated herein by reference). One may substitute fragments of urokinase for the intact molecule (e.g., one may use the EGF-like binding domain alone, without the enzymatically-active portion of uPA). In general, the compounds should be tested against uPA receptors derived from the species to be treated, as some species specificity is known to exist.
Compounds prepared as described in Example 1 above were screened in a human urokinase receptor radioligand competition assay, as described in Goodson et al., Proc Natl Acad Sci USA (1994) 91:7129 (incorporated herein by reference), except that the labeled ligand used was an epitope tagged version of the EGF-like domain of human urokinase, expressed and purified from recombinant yeast.

With `COc1ccc(C(NC(=O)CN(CC(N)=O)C(=O)CN(C(=O)CNCCc2c(O)cc(O)cc2O)c2ccc3c(c2)CCC3)c2ccc(OC)cc2)cc1`, the IC50 worked out at 2600 nM.

`COc1ccc(C(NC(=O)CN(CC(N)=O)C(=O)CN(C(=O)CNCCc2ccc(O)cc2)c2ccccc2)c2ccc(OC)cc2)cc1` had an IC50 of 1800 nM.

On to `COc1ccc(C(NC(=O)CN(CC(N)=O)C(=O)CN(C(=O)CNCCc2ccccc2)c2ccc3c(c2)CCC3)c2ccc(OC)cc2)cc1`, for which the IC50 was determined as 1380 nM.

`C#CCNCC(=O)N(CC(=O)N(CC(N)=O)CC(=O)NC(c1ccc(OC)cc1)c1ccc(OC)cc1)c1ccc2ccccc2c1` returned an IC50 of 33 nM.

As to `COc1ccc(C(NC(=O)CN(CC(N)=O)C(=O)CN(C(=O)CNCCc2ccc(O)cc2)c2ccc3c(c2)CCC3)c2ccc(OC)cc2)cc1`, the IC50 stood at 200 nM.

Turning to `C#CCNCC(=O)N(CC(=O)N(CC(N)=O)CC(=O)NC(c1ccc(OC)cc1)c1ccc(OC)cc1)c1ccc2c(c1)CCC2`, the concentration for half-maximal inhibition (IC50) worked out at 700 nM. The “% Inhibition” value (Concentration 0.2 μM) is recorded as 32.8%.

As to `NC(=O)CN(CC(=O)NC(c1ccccc1)c1ccccc1)C(=O)CN(C(=O)CNCCc1ccc(O)cc1)c1ccc2c(c1)CCC2`, the IC50 came out at 930 nM.

`COc1ccc(CCNCC(=O)N(CC(=O)N(CC(N)=O)CC(=O)NC(c2ccc(OC)cc2)c2ccc(OC)cc2)c2ccc3c(c2)CCC3)cc1` displayed an IC50 of 440 nM. Besides, the “% Inhibition” value (Concentration 1 μM) came to 72.5%.

`COc1ccc(C(NC(=O)CN(C(=O)CN(C(=O)C(C)NCCc2ccc(O)cc2)c2ccc3c(c2)CCC3)C(C)C(N)=O)c2ccc(OC)cc2)cc1` (centres unmarked) came in with an IC50 of 120 nM. For the same molecule, the “% Inhibition” value (Concentration 0.1 μM) is 27.2%.

Consider `COc1ccc(C(NC(=O)CN(CC(N)=O)C(=O)CN(C(=O)CNCCCCO)c2ccc3c(c2)CCC3)c2ccc(OC)cc2)cc1`, for which the IC50 was found to be 760 nM. Besides, the “% Inhibition” value (Concentration 1 μM) turned out to be 51.4%.

The molecule `COc1ccc(C(NC(=O)CN(CC(N)=O)C(=O)CN(C(=O)C(C)NCCc2ccc(O)cc2)c2ccc3c(c2)CCC3)c2ccc(OC)cc2)cc1` (centres unmarked) displayed an IC50 of 105 nM.

For the molecule `COc1ccc(C(NC(=O)CN(CC(N)=O)C(=O)CN(C(=O)CNCCc2ccc(O)cc2)c2ccc(-c3ccccc3)cc2)c2ccc(OC)cc2)cc1`, the IC50 came out at 1900 nM. In addition, the “% Inhibition” value (Concentration 0.2 μM) is on record as 36.6%.

For the molecule `COc1ccc(C(NC(=O)CN(CC(N)=O)C(=O)CN(C(=O)CNCc2ccccc2)c2ccc3c(c2)CCC3)c2ccc(OC)cc2)cc1`, the IC50 is 770 nM. Also, the “% Inhibition” value (Concentration 0.2 μM) was 43.5%.

Consider `COc1ccc(C(NC(=O)CN(CC(N)=O)C(=O)CN(C(=O)CNCCc2ccc(O)cc2)C2CCCCC2)c2ccc(OC)cc2)cc1`, for which the IC50 was above 10000 nM. The “% Inhibition” value (Concentration 0.2 μM) came out at 19.3%.

Consider `COc1ccc(C(NC(=O)CN(CC(N)=O)C(=O)CN(CCc2ccccc2)C(=O)CNCCc2ccc(O)cc2)c2ccc(OC)cc2)cc1`, for which the IC50 was found to be 10000 nM. In addition, the “% Inhibition” value (Concentration 2.5 μM) stood at 24.1%.
